Source: patent publication US20220380768A1 (TALLAC THERAPEUTICS, published 2022)

The binders below were run against T1, human CD22 (d1 to d7 domain according to NP_001762.2) (human, UniProt P20273 20-687) (assay: SPR).
T1 construct: domain: d1 to d7 domain; also called human CD22-gly; Siglec-2

Binder	Kd [nM]	koff [s⁻¹]	kon [M⁻¹ s⁻¹]
TNT70 variant RL1 N92A (antibody, V domains shown) VH: QVQLLESGGGVVQPGGSLRLSCAASGFAFSIYDMNWVRQAPGKGLEWVSAISSGGGTTYYADSVKGRFTISRDNAKNSLYLQMNSLRAEDTAVYYCARHSGYGTHWGVLFAYWGRGTLVTVSS VL: DIQMTQSPSSLSASVGDRVTITCRASQDIHGYLNWYQQKPGKAPKLLIYYTSILHSGVPSRFSGSGSGTDFTLTISSLQPEDFATYFCQQGATLPWTFGQGTKLEIK	0.295	4.45e-05	151000
TNT70 variant RL1 N92C (antibody, V domains shown) VH: QVQLLESGGGVVQPGGSLRLSCAASGFAFSIYDMNWVRQAPGKGLEWVSAISSGGGTTYYADSVKGRFTISRDNAKNSLYLQMNSLRAEDTAVYYCARHSGYGTHWGVLFAYWGRGTLVTVSS VL: DIQMTQSPSSLSASVGDRVTITCRASQDIHGYLNWYQQKPGKAPKLLIYYTSILHSGVPSRFSGSGSGTDFTLTISSLQPEDFATYFCQQGCTLPWTFGQGTKLEIK	0.643	7.13e-05	111000
TNT70 variant RL1 N92D (antibody, V domains shown) VH: QVQLLESGGGVVQPGGSLRLSCAASGFAFSIYDMNWVRQAPGKGLEWVSAISSGGGTTYYADSVKGRFTISRDNAKNSLYLQMNSLRAEDTAVYYCARHSGYGTHWGVLFAYWGRGTLVTVSS VL: DIQMTQSPSSLSASVGDRVTITCRASQDIHGYLNWYQQKPGKAPKLLIYYTSILHSGVPSRFSGSGSGTDFTLTISSLQPEDFATYFCQQGDTLPWTFGQGTKLEIK	0.346	5.05e-05	146000
TNT70 variant RL1 N92E (antibody, V domains shown) VH: QVQLLESGGGVVQPGGSLRLSCAASGFAFSIYDMNWVRQAPGKGLEWVSAISSGGGTTYYADSVKGRFTISRDNAKNSLYLQMNSLRAEDTAVYYCARHSGYGTHWGVLFAYWGRGTLVTVSS VL: DIQMTQSPSSLSASVGDRVTITCRASQDIHGYLNWYQQKPGKAPKLLIYYTSILHSGVPSRFSGSGSGTDFTLTISSLQPEDFATYFCQQGETLPWTFGQGTKLEIK	0.293	4.29e-05	147000
TNT70 variant RL1 N92F (antibody, V domains shown) VH: QVQLLESGGGVVQPGGSLRLSCAASGFAFSIYDMNWVRQAPGKGLEWVSAISSGGGTTYYADSVKGRFTISRDNAKNSLYLQMNSLRAEDTAVYYCARHSGYGTHWGVLFAYWGRGTLVTVSS VL: DIQMTQSPSSLSASVGDRVTITCRASQDIHGYLNWYQQKPGKAPKLLIYYTSILHSGVPSRFSGSGSGTDFTLTISSLQPEDFATYFCQQGFTLPWTFGQGTKLEIK	0.295	4.58e-05	155000
TNT70 variant RL1 N92G (antibody, V domains shown) VH: QVQLLESGGGVVQPGGSLRLSCAASGFAFSIYDMNWVRQAPGKGLEWVSAISSGGGTTYYADSVKGRFTISRDNAKNSLYLQMNSLRAEDTAVYYCARHSGYGTHWGVLFAYWGRGTLVTVSS VL: DIQMTQSPSSLSASVGDRVTITCRASQDIHGYLNWYQQKPGKAPKLLIYYTSILHSGVPSRFSGSGSGTDFTLTISSLQPEDFATYFCQQGGTLPWTFGQGTKLEIK	0.452	6.8e-05	151000
TNT70 variant RL1 N92H (antibody, V domains shown) VH: QVQLLESGGGVVQPGGSLRLSCAASGFAFSIYDMNWVRQAPGKGLEWVSAISSGGGTTYYADSVKGRFTISRDNAKNSLYLQMNSLRAEDTAVYYCARHSGYGTHWGVLFAYWGRGTLVTVSS VL: DIQMTQSPSSLSASVGDRVTITCRASQDIHGYLNWYQQKPGKAPKLLIYYTSILHSGVPSRFSGSGSGTDFTLTISSLQPEDFATYFCQQGHTLPWTFGQGTKLEIK	0.409	6.08e-05	149000
TNT70 variant RL1 N92P (antibody, V domains shown) VH: QVQLLESGGGVVQPGGSLRLSCAASGFAFSIYDMNWVRQAPGKGLEWVSAISSGGGTTYYADSVKGRFTISRDNAKNSLYLQMNSLRAEDTAVYYCARHSGYGTHWGVLFAYWGRGTLVTVSS VL: DIQMTQSPSSLSASVGDRVTITCRASQDIHGYLNWYQQKPGKAPKLLIYYTSILHSGVPSRFSGSGSGTDFTLTISSLQPEDFATYFCQQGPTLPWTFGQGTKLEIK	0.644	7.24e-05	112000
TNT70 variant RL1 N92S (antibody, V domains shown) VH: QVQLLESGGGVVQPGGSLRLSCAASGFAFSIYDMNWVRQAPGKGLEWVSAISSGGGTTYYADSVKGRFTISRDNAKNSLYLQMNSLRAEDTAVYYCARHSGYGTHWGVLFAYWGRGTLVTVSS VL: DIQMTQSPSSLSASVGDRVTITCRASQDIHGYLNWYQQKPGKAPKLLIYYTSILHSGVPSRFSGSGSGTDFTLTISSLQPEDFATYFCQQGSTLPWTFGQGTKLEIK	0.468	–	–
TNT70 variant RL1 N92T (antibody, V domains shown) VH: QVQLLESGGGVVQPGGSLRLSCAASGFAFSIYDMNWVRQAPGKGLEWVSAISSGGGTTYYADSVKGRFTISRDNAKNSLYLQMNSLRAEDTAVYYCARHSGYGTHWGVLFAYWGRGTLVTVSS VL: DIQMTQSPSSLSASVGDRVTITCRASQDIHGYLNWYQQKPGKAPKLLIYYTSILHSGVPSRFSGSGSGTDFTLTISSLQPEDFATYFCQQGTTLPWTFGQGTKLEIK	0.529	7.85e-05	149000
TNT70 variant RL1 N92V (antibody, V domains shown) VH: QVQLLESGGGVVQPGGSLRLSCAASGFAFSIYDMNWVRQAPGKGLEWVSAISSGGGTTYYADSVKGRFTISRDNAKNSLYLQMNSLRAEDTAVYYCARHSGYGTHWGVLFAYWGRGTLVTVSS VL: DIQMTQSPSSLSASVGDRVTITCRASQDIHGYLNWYQQKPGKAPKLLIYYTSILHSGVPSRFSGSGSGTDFTLTISSLQPEDFATYFCQQGVTLPWTFGQGTKLEIK	0.573	8.32e-05	145000
TNT70 variant RL1 N92W (antibody, V domains shown) VH: QVQLLESGGGVVQPGGSLRLSCAASGFAFSIYDMNWVRQAPGKGLEWVSAISSGGGTTYYADSVKGRFTISRDNAKNSLYLQMNSLRAEDTAVYYCARHSGYGTHWGVLFAYWGRGTLVTVSS VL: DIQMTQSPSSLSASVGDRVTITCRASQDIHGYLNWYQQKPGKAPKLLIYYTSILHSGVPSRFSGSGSGTDFTLTISSLQPEDFATYFCQQGWTLPWTFGQGTKLEIK	0.549	7.87e-05	143000

Each binder was assayed against T1, human CD22 (d1 to d7 domain according …) (assay: SPR; summary table, column 'CD22 KD (nM)').

Binder	Kd [nM]
TNT84 (antibody, human IgG1, kappa, V domains shown) VH: QVQLQESGPGLVKPSDTLSLTCTVSGFAFSIYDMSWIRQPPGKGLEWIAYISSGGGTTYYNPSLKSRVTISVDTSKNQFSLKLSSVTAADTAVYYCARHSGYGTHWGVLFAYWGRGTLVTVSS VL: EIVLTQSPATLSLSPGERATLSCRASQDIHGYLNWYQQKPGQAPRLLIYYTSILHSGIPARFSGSGPGTDFTLTISSLEPEDFAVYYCQQGNTLPWTFGGGTKLEIKR	2.5
TNT81 (antibody, human IgG1, kappa, V domains shown) VH: EVQLVESGGGLVQPGGSLRLSCAASGFAFSIYDMSWVRQAPGKGLEWVAYISSGGGTTYYPDTVKGRFTISRDNSKNTLYLQMNSLRAEDTAVYYCARHSGYGTHWGVLFAYWGRGTLVTVSS VL: EIVLTQSPATLSLSPGERATLSCRASQDIHGYLNWYQQKPGQAPRLLIYYTSILHSGIPARFSGSGPGTDFTLTISSLEPEDFAVYYCQQGNTLPWTFGGGTKLEIKR	0.7

The binders below were run against T1, human CD22 (d1 to d7 domain according …) (assay: SPR; mAb supernatant captured on protein A chip, human CD22 injected).
Method: Binding of humanized anti-CD22 antibodies to human CD22 was measured by surface plasmon resonance (SPR). For assessment of binding by SPR, biotinylated protein A (15 μg/mL) was immobilized to the surface of an NLC chip. 30 μL of mAb supernatant was added to 150 μL of PBS-T and captured over the protein A surface. Serial dilutions of human CD22-gly (300 nM, 3× dilution) were injected over the mAb-coated chips, and binding kinetics were determined. Chips were regenerated using 4:1 v/v of Pierce IgG elution butter/4M NaCl.

Binder	koff [s⁻¹]	kon [M⁻¹ s⁻¹]	Kd [nM]
TNT72 (antibody, human IgG1, kappa, V domains shown) VH: QVQLQESGPGLVKPSDTLSLTCTVSGFAFSIYDMSWIRQPPGKGLEWIAYISSGGGTTYYNPSLKSRVTISVDTSKNQFSLKLSSVTAADTAVYYCARHSGYGTHWGVLFAYWGRGTLVTVSS VL: DIQMTQSPSSLSASVGDRVTITCRASQDIHGYLNWYQQKPGKAPKLLIYYTSILHSGVPSRFSGSGSGTDFTLTISSLQPEDFATYFCQQGNTLPWTFGQGTKLEIKR	0.000146	223000	–
TNT71 (antibody, human IgG1, kappa, V domains shown) VH: EVQLVESGGGLVQPGGSLRLSCAASGFTFSSYEMNWVRQAPGKGLEWVSYISSSGSTIYYADSVKGRFTISRDNAKNSLYLQMNSLRAEDTAVYYCARHSGYGTHWGVLFAYWGRGTLVTVSS VL: DIQMTQSPSSLSASVGDRVTITCRASQDIHGYLNWYQQKPGKAPKLLIYYTSILHSGVPSRFSGSGSGTDFTLTISSLQPEDFATYFCQQGNTLPWTFGQGTKLEIKR	0.00146	281000	–
TNT79 (antibody, human IgG1, kappa, V domains shown) VH: EVQLVESGGGLVQPGGSLRLSCAASGFTFSSYEMNWVRQAPGKGLEWVSYISSSGSTIYYADSVKGRFTISRDNAKNSLYLQMNSLRAEDTAVYYCARHSGYGTHWGVLFAYWGRGTLVTVSS VL: DIQMTQSPSSLSASVGDRVTITCRASQSISSYLNWYQQKPGKAPKLLIYAASSLQSGVPSRFSGSGSGTDFTLTISSLQPEDFATYYCQQGNTLPWTFGQGTKLEIKR	–	–	23.3
